What all share (assay type): cell-based
The target of one test is SYK(S550F)-NL (Homo sapiens, UniProt P43405, S550F). Put plainly: NanoBRET assay in digitonin permeabilized HEK293 cells, SYK(S550F)-NL. The conditions noted are these: fixed concentration of tracer 8, average ± SEM, read-out: IC50, SYK(variant)-NL S550F. Also on record: host or cells: HEK293.
Another test has as its target T1, SYK(WT)-NL (Homo sapiens, UniProt P43405).
T1 construct: SYK tracers enable BRET with full-length SYK(WT) after digitonin permeabilization; host or cells: HEK293
The test is described as follows: NanoBRET assay in digitonin permeabilized HEK293 cells, SYK(WT)-NL. The conditions noted are these: fixed concentration of tracer 8, average ± SEM, read-out: IC50, SYK(variant)-NL WT. In general terms: Bioluminescence resonance energy transfer reports proximity on the nanometre scale.

In another test the target is SYK(S550Y)-NL (Homo sapiens, UniProt P43405, S550Y). The test is described as follows: NanoBRET assay in digitonin permeabilized HEK293 cells, SYK(S550Y)-NL. Also on record: host or cells: HEK293. To be noted: fixed concentration of tracer 8, average ± SEM, read-out: IC50, SYK(variant)-NL S550Y.

For the substance rATP, the IC50 (usually the point on the concentration scale where inhibition reaches its midpoint) on SYK(S550F)-NL worked out at 69.8 ± 1 µM; at SYK(WT)-NL it was 16.8 ± 0.4 µM; at SYK(S550Y)-NL it was 25.6 ± 1.9 µM.

For the origin of these results see PMC13089524, “Development of SYK NanoBRET cellular target engagement assays for gain–of–function variants” (Frontiers in chemical biology, 2024).
